Each structure is given as a SMILES string.

The subject of assay [1] is Aorta. In words: Vasodilatory activity at endothelium denuded Wistar rat thoracic aorta assessed as relaxation of phenylephrine-induced contraction preincubated for 30 mins before phenylephrine challenge in presence of 1 uM soluble guanylate cyclase inhibitor H-[1,2,4]Oxadiazolo[4,3-a]quinoxalin-1-one.
In assay [2] the test system is Aorta. The experiment in a line: Vasodilatory activity at endothelium denuded Wistar rat thoracic aorta assessed as relaxation of phenylephrine-induced contraction.

As to `O=[N+]([O-])OCC(CO)O[N+](=O)[O-]` (configuration not stated), the values for the EC50 in the assay with Aorta [1] and in the assay on Aorta [2] were greater than 100 µM and 1700 nM, respectively.

These data come from ChEMBL document CHEMBL1817543, “New nitric oxide or hydrogen sulfide releasing aspirins” (J Med Chem, 2011).
